In ChEMBL document CHEMBL1140336, “Synthesis, structure-activity relationships, and biological evaluation of fatty alcohol phosphates as lysophosphatidic acid receptor ligands, activators of PPARgamma, and inhibitors of autotaxin” (J Med Chem, 2005):

Molecular target: T1, Lysophosphatidic acid receptor 3 (Homo sapiens) (UniProt Q9UBY5)
T1 sequence (whole entry): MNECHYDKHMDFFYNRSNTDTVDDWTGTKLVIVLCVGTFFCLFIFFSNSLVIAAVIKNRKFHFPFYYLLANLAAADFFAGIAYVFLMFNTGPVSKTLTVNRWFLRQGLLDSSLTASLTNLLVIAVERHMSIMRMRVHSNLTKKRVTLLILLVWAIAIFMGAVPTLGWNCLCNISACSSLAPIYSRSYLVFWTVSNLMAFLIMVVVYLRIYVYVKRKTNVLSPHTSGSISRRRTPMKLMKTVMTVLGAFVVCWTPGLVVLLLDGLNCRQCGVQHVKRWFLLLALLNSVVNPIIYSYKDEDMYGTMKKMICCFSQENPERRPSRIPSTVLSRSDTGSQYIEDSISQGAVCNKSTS
Assay: Maximal efficacy against LPA3 receptor expressed in RH7777 rat hepatoma cells
Type: functional, cell-based

Structure (SMILES) | Emax [%]
CCCCCCCC/C=C/CCCCCCCCOP(O)(O)=S | 78
CCCCCCCCCCCCCCCC(=O)N[C@@H](COP(=O)(O)O)C(=O)O | 100
